Data on 93 molecules can be found in PubChem BioAssay AID493098 (Sanford-Burnham Center for Chemical Genomics, 2011).

By UniProt entry, the sequences of proteins in these tests, tags left out.
UniProt P51684, whole entry: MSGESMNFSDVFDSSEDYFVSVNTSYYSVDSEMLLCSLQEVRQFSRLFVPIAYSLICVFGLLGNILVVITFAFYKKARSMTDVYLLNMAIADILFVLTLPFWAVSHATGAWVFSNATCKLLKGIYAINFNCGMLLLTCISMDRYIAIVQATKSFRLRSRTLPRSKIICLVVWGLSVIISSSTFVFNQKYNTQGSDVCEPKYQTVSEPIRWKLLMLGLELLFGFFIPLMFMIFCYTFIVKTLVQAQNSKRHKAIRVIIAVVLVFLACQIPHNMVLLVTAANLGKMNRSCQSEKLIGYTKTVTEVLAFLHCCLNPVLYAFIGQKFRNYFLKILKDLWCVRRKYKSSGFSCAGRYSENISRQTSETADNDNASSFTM

Only a part is listed here, and it is no random draw. Some salts or complexes appear as unconnected parts, following the source record. Activity calls are given as the source filed them.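 Rule for the calls: active = compounds whose inhibition of the agonist-driven luminescence signal at 20 µM reaches about 50% (limit read from the data); inactive = the rest.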

This test deals with C-C chemokine receptor type 6 (Homo sapiens) (UniProt P51684). Briefly: CCR6 receptor antagonists, primary screen, cell-based, CHO-K1, luminescence, beta-arrestin, uHTS (AID 493098).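 Note: cells stimulated with CCL20 at 14 nM final; plate controls were DMSO with CCL20 for no effect and DMSO without agonist for full effect.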 The settings on record: CHO-K1 CCR6 PathHunter beta-arrestin, CCL20-stimulated, at 20 µM, stronger effect = higher value.
On to `COc1ccccc1OP(C)(=O)Nc1c(C)cccc1C` (stereo not drawn), for which the inhibition (commonly the relative decrease from the control value, in per cent) is inactive: 5.48%.

Turning to `CN1CCCCC1COC(=O)C1(O)c2ccccc2CCc2ccccc21` (stereo not drawn), the inhibition was inactive: 11.7%.

For the molecule `CCCOc1ccc(NP(C)(=O)Oc2ccc(Cl)cc2)cc1` (stereo not drawn), the inhibition was inactive: 16.2%.

As for `CP(=O)(Nc1ccc(SC(F)(F)F)cc1)Oc1ccccc1` (stereo not drawn), the inhibition was inactive: 4.75%.

Consider `CC1=C2N=C(C=C3N=C(C(C)=C4[N-][C@@](C)([C@@H]5N=C1[C@](C)(CCC(=O)NC[C@@H](C)OP(=O)([O-])O[C@H]1[C@@H](O)[C@@H](n6cnc7cc(C)c(C)cc76)O[C@@H]1CO)[C@H]5CC(N)=O)[C@@](C)(CC(N)=O)[C@@H]4CCC(N)=O)[C@@](C)(CC(N)=O)[C@@H]3CCC(N)=O)C(C)(C)[C@@H]2CCC(N)=O.[C-]#N.[Co+3]`, for which the inhibition is inactive: 14.4%.

In the case of `O=[N+]([O-])c1cc([N+](=O)[O-])c(Nc2nnnn2CCO)c([N+](=O)[O-])c1`, the inhibition is inactive: 46.8%.

Consider `CCOC(=O)C(CC)C1=NC(C)(C)Cc2ccccc21.O=[N+]([O-])c1cc([N+](=O)[O-])c(O)c([N+](=O)[O-])c1` (stereo not drawn), for which the inhibition is inactive: 32.2%.

For `O=[N+]([O-])c1cc([N+](=O)[O-])c(-c2cnn(-c3ccccc3)c2)c([N+](=O)[O-])c1`, the inhibition is inactive: -30.4%.

Regarding `Cc1nc2ccc3ccccc3c2s1.O=[N+]([O-])c1cc([N+](=O)[O-])c(O)c([N+](=O)[O-])c1`, the inhibition was inactive: 31%.

For the molecule `O=[N+]([O-])c1cc([N+](=O)[O-])c(-n2nnc3ccccc32)c([N+](=O)[O-])c1`, the inhibition was inactive: 14.7%.

Consider `Cc1cc(C)cc(OP(C)(=O)Nc2ccccn2)c1` (stereo not drawn), for which the inhibition is inactive: -6.63%.

In the case of `CP(=O)(Nc1cccc(Br)c1)Oc1ccccc1` (stereo not drawn), the inhibition was inactive: -10.6%.

As for `Cc1ccc(C)c(NP(C)(=O)Oc2ccccc2)c1` (stereo not drawn), the inhibition is inactive: 3.18%.

As for `COc1ccccc1OP(C)(=O)Nc1cccc(Br)c1` (stereo not drawn), the inhibition is inactive: 8.38%.

For `Cc1cc(C)cc(OP(C)(=O)Nc2ccc(C)cc2C)c1` (stereo not drawn), the inhibition is inactive: 14.1%.

As to `CCOC(=O)c1ccc(NP(C)(=O)Oc2cc(C)cc(C)c2)cc1` (stereo not drawn), the inhibition is inactive: 15.6%.

For the molecule `CC1=NCCc2c1[nH]c1ccccc21.O=[N+]([O-])c1cc([N+](=O)[O-])c(O)c([N+](=O)[O-])c1`, the inhibition was inactive: 10.4%.

Consider `O=C(O)c1cccc(Nc2c([N+](=O)[O-])cc([N+](=O)[O-])cc2[N+](=O)[O-])c1`, for which the inhibition was active: 59.5%.

`CCOC(=O)c1ccc(NP(C)(=O)Oc2ccccc2)cc1` (stereo not drawn): the inhibition is inactive: 5.47%.

Consider `COc1ccccc1OP(C)(=O)Nc1ccc(C)cc1` (stereo not drawn), for which the inhibition was inactive: -8.08%.

Turning to `Cc1ccc(NP(C)(=O)Oc2ccccc2)c(C)c1` (stereo not drawn), the inhibition was inactive: 12.1%.

On to `COc1ccccc1OP(C)(=O)Nc1cc(Cl)ccc1C` (stereo not drawn), for which the inhibition was inactive: -9.7%.

In the case of `COc1ccc(OP(C)(=O)Nc2cccc(F)c2)cc1` (stereo not drawn), the inhibition was inactive: 13.5%.

In the case of `Cc1cc(C)cc(OP(C)(N)=O)c1` (stereo not drawn), the inhibition was inactive: -14.6%.

As to `O=[N+]([O-])c1cc([N+](=O)[O-])c(Nc2cccnc2)c([N+](=O)[O-])c1`, the inhibition is inactive: 45.7%.

Turning to `CC(C)(C)c1ccc(OP(C)(=O)Nc2ccc(SC(F)(F)F)cc2)cc1` (stereo not drawn), the inhibition is inactive: 7.73%.

Regarding `Cc1cccc(C)c1OP(C)(N)=O` (stereo not drawn), the inhibition was inactive: -4.58%.

As to `O=[N+]([O-])c1ccc2c(c1)C=Nc1ccccc1O2`, the inhibition was inactive: 9.76%.

In the case of `CCN(CC)CCCOC(=O)C(O)(c1ccccc1)c1ccccc1`, the inhibition is inactive: -7.09%.

Turning to `CCOP(C)(=S)SCC(=O)NC(C)C(=O)O` (stereo not drawn), the inhibition was inactive: -8.49%.

Turning to `CCOC(=O)c1ccc(NP(C)(=O)Oc2ccc(OC)cc2)cc1` (stereo not drawn), the inhibition is inactive: 10.2%.

Regarding `O=[N+]([O-])c1cc([N+](=O)[O-])c(O)c([N+](=O)[O-])c1.c1ccc(Oc2ccncc2)cc1`, the inhibition is inactive: 17.6%.

On to `CP(=O)(Nc1ccccn1)Oc1ccc(Cl)cc1` (stereo not drawn), for which the inhibition is inactive: -2.22%.

On to `Cc1cccc(C)c1OP(C)(=O)Nc1ccc(SC(F)(F)F)cc1` (stereo not drawn), for which the inhibition is inactive: 14.2%.

Turning to `CP(=O)(Nc1ccc(SC(F)(F)F)cc1)Oc1ccc(Cl)cc1` (stereo not drawn), the inhibition is inactive: 13.9%.

On to `CP(=O)(Oc1ccccc1)OC(c1ccccc1)C(F)(F)F` (stereo not drawn), for which the inhibition is inactive: 7.99%.

Regarding `CP(=O)(NC(=O)Nc1ccccc1)Oc1ccccc1` (stereo not drawn), the inhibition is inactive: 2.17%.

As for `CCc1ccc(OP(C)(=O)N2CCN(c3ccc([N+](=O)[O-])cc3)CC2)cc1` (stereo not drawn), the inhibition was inactive: 8.02%.

Consider `Cc1cc(C)cc(OP(C)(=O)Nc2ccc(SC(F)(F)F)cc2)c1` (stereo not drawn), for which the inhibition was inactive: 9.84%.

Turning to `CP(=S)(Nn1cnnc1)Oc1ccccc1` (stereo not drawn), the inhibition is inactive: 3.93%.

Consider `COc1ccccc1OP(C)(=O)Nc1ccccc1` (stereo not drawn), for which the inhibition was inactive: 7.56%.

Regarding `CP(=O)(Nc1ccccc1Br)Oc1ccccc1` (stereo not drawn), the inhibition is inactive: 1.1%.

Consider `Nc1ccc2c(ccc3cccnc32)n1.O=[N+]([O-])c1cc([N+](=O)[O-])c(O)c([N+](=O)[O-])c1`, for which the inhibition was inactive: 23.9%.

`CP(=O)(OC12CC3CC(CC(C3)C1)C2)OC12CC3CC(CC(C3)C1)C2`: the inhibition was inactive: 3.17%.

In the case of `CCOC(=O)c1ccc(NP(C)(=O)Oc2ccc(Cl)cc2)cc1` (stereo not drawn), the inhibition was inactive: 1.01%.

`CP(=O)(Nc1ccc(Cl)cc1)Oc1ccc(F)cc1` (stereo not drawn): the inhibition was inactive: -9.82%.

Consider `COc1ccccc1OP(C)(=O)Nc1ccccc1Br` (stereo not drawn), for which the inhibition is inactive: 5.74%.

With `CC(C)(C)c1ccc(OP(C)(=O)O)cc1`, the inhibition is inactive: 3.27%.

As to `CN(C)C(=O)c1c([N+](=O)[O-])cc([N+](=O)[O-])cc1[N+](=O)[O-]`, the inhibition is inactive: -9.59%.

On to `CCN(CC)CC(O)COC(=O)C(O)(c1ccccc1)C1CCCCC1` (stereo not drawn), for which the inhibition is inactive: -4.23%.

For the molecule `COc1ccc(OP(C)(=O)Nc2ccc(Br)cc2)cc1` (stereo not drawn), the inhibition is inactive: 1.82%.

Turning to `CP(=O)(Oc1ccccc1)N1CCOC1=O` (stereo not drawn), the inhibition was inactive: 17.2%.

For `CCc1ccc(OP(C)(=O)Nc2cccnc2)cc1` (stereo not drawn), the inhibition was inactive: 7.93%.

On to `COc1ccccc1OP(C)(=O)Nc1c(C)n(C)n(-c2ccccc2)c1=O` (stereo not drawn), for which the inhibition is inactive: -4.92%.

Consider `O=C(OCCCN1CCCC1)C(O)(c1ccccc1)C1CCCCC1` (stereo not drawn), for which the inhibition is inactive: -1.04%.

On to `Cc1c(NP(C)(=O)Oc2ccc(C(C)C)cc2)c(=O)n(-c2ccccc2)n1C` (stereo not drawn), for which the inhibition is inactive: 4.56%.

In the case of `O=[N+]([O-])c1cc([N+](=O)[O-])c(Nc2ccccn2)c([N+](=O)[O-])c1`, the inhibition was inactive: 48.6%.

Consider `CCc1ccc(OP(C)(=O)O)cc1`, for which the inhibition is inactive: -7.02%.

As to `CP(=O)(Nc1ccccn1)Oc1ccccc1` (stereo not drawn), the inhibition is inactive: 1.27%.

Turning to `COc1ccccc1OP(C)(=O)Nc1ccc(C)cc1C` (stereo not drawn), the inhibition is inactive: 6.4%.

Regarding `COc1ccccc1OP(C)(=O)Nc1ccc(Br)cc1` (stereo not drawn), the inhibition is inactive: 5.56%.

For the molecule `CN(C)CCOC(=O)C(O)(c1ccccc1)C1CCCC1` (stereo not drawn), the inhibition is inactive: -1.48%.

`COc1ccc(OP(C)(=O)Nc2ccccn2)cc1` (stereo not drawn): the inhibition is inactive: -4.8%.

Turning to `CP(=O)(Nc1ccc(Cl)cc1Cl)Oc1ccccc1` (stereo not drawn), the inhibition was inactive: 18.5%.

`CCCCCCCCCCCCCCCC1C[N+](C)(C)CCOP(C)(=O)O1` (stereo not drawn): the inhibition was inactive: 19.1%.

For `CP(=O)(OCCOc1ccccc1)OCCOc1ccccc1`, the inhibition was inactive: 7.66%.

For `O=C1C(O)=C([N+](=O)[O-])C(=O)C(O)=C1[N+](=O)[O-]`, the inhibition was inactive: 0.78%.

On to `Cc1cc(C)cc(OP(C)(=O)Nc2cccc(C(F)(F)F)c2)c1` (stereo not drawn), for which the inhibition was inactive: 5.73%.

On to `COc1ccc(OP(C)(=O)Nc2ccccc2Br)cc1` (stereo not drawn), for which the inhibition is inactive: 6.55%.

Take `COc1ccccc1OP(C)(=O)Nc1ccc(C)c(C)c1` (stereo not drawn): the inhibition was inactive: -0.51%.

As for `CCN(CC)CCCOC(=O)C(O)(c1ccccc1)C1CCCCC1` (stereo not drawn), the inhibition is inactive: 6.24%.

Consider `Cc1c([N+](=O)[O-])cc([N+](=O)[O-])c(Br)c1[N+](=O)[O-]`, for which the inhibition was inactive: 18.7%.

As for `O=[N+]([O-])c1cc([N+](=O)[O-])c(OC2CCCCC2O)c([N+](=O)[O-])c1` (stereo not drawn), the inhibition was inactive: 19%.

For `CCCCCOc1ccc(NP(C)(=O)Oc2ccc(Cl)cc2Cl)cc1` (stereo not drawn), the inhibition is inactive: 15%.

In the case of `CP(=O)(Nc1ccccc1)Oc1ccc(F)cc1` (stereo not drawn), the inhibition was inactive: 5.71%.

For the molecule `COc1ccc(OP(C)(=O)Nc2ccc(SC(F)(F)F)cc2)cc1` (stereo not drawn), the inhibition is inactive: -2.65%.

On to `CCOC(=O)c1ccc(NP(C)(=O)Oc2ccc(F)cc2)cc1` (stereo not drawn), for which the inhibition was inactive: 6.43%.

As to `O=C(OCCN1CCN(CCOCc2ccccc2)CC1)C(O)(c1ccccc1)c1ccccc1`, the inhibition is inactive: 9.81%.

Turning to `O=C(OC1CN2CCC1CC2)c1ccc([N+](=O)[O-])cc1` (stereo not drawn), the inhibition was inactive: -9.04%.

`COc1ccc2c(c1O)-c1c(O)c(OC)cc3c1[C@H](C2)[N+](C)(C)CC3.O=[N+]([O-])c1cc([N+](=O)[O-])c([O-])c([N+](=O)[O-])c1[O-]`: the inhibition is inactive: 15.3%.

As for `CC(C)c1ccc(OP(C)(=O)Nc2ccc(SC(F)(F)F)cc2)cc1` (stereo not drawn), the inhibition is inactive: 8.06%.

As for `CP(=O)(Nc1ccccc1F)Oc1ccccc1` (stereo not drawn), the inhibition is inactive: 4.88%.

As to `CP(=O)(Nc1ccc2c(c1)OCCO2)Oc1ccccc1` (stereo not drawn), the inhibition is inactive: -3.22%.

Turning to `Cc1ccccc1NP(C)(=O)Nc1ccccc1C`, the inhibition was inactive: -3.33%.

Take `CP(=O)(Nc1ccc(SC(F)(F)F)cc1)Oc1ccc(F)cc1` (stereo not drawn): the inhibition was inactive: 4.93%.

In the case of `CCOP(C)(=S)SCC(=O)NC(C)(CC)C(=O)O` (stereo not drawn), the inhibition is inactive: 6.88%.

On to `Cc1cc(-c2cccc3ccccc23)c(C)cn1.O=[N+]([O-])c1cc([N+](=O)[O-])c(O)c([N+](=O)[O-])c1`, for which the inhibition is inactive: 34%.

For the molecule `O=[N+]([O-])c1cc([N+](=O)[O-])c(NCC2CCS(=O)(=O)C2)c([N+](=O)[O-])c1` (stereo not drawn), the inhibition was inactive: 1.58%.

Take `O=[N+]([O-])c1ccc(OP2(=O)COCCO2)cc1` (stereo not drawn): the inhibition was inactive: -7.82%.

Consider `Cc1c(C(c2ccc3c(c2)OCO3)c2c(C)n(C)n(-c3ccccc3)c2=O)c(=O)n(-c2ccccc2)n1C.O=[N+]([O-])c1cc([N+](=O)[O-])c(O)c([N+](=O)[O-])c1`, for which the inhibition is inactive: 0.61%.

Consider `COc1ccc(OP(C)(=O)Nc2cccc(Br)c2)cc1` (stereo not drawn), for which the inhibition is inactive: 7.32%.

On to `COc1ccc(NP(C)(=O)Oc2ccccc2OC)cc1` (stereo not drawn), for which the inhibition is inactive: 6.99%.

Turning to `CN(C)CCOC(=O)C(O)(c1ccccc1)C1CCCCC1` (stereo not drawn), the inhibition was inactive: -18.6%.
